scFv variants of Ab-95 (light chain) against a SARS-CoV-2 spike peptide

Data: MIT Lincoln Laboratory AlphaSeq set, Engelhart et al. 2022, doi:10.1038/s41597-022-01779-4, as distributed in FLAb.

Binding partner: SARS-CoV-2 spike HR2 peptide, sequence PDVDLGDISGINAS.

Each scFv is VH, three GGGGS repeats, VL, as in the parent Ab-95, and differs from it in the CDRs of the light chain only.
VH: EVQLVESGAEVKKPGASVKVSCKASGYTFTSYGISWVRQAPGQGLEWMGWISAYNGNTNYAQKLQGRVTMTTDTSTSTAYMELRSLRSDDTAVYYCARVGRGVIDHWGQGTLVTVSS
VL: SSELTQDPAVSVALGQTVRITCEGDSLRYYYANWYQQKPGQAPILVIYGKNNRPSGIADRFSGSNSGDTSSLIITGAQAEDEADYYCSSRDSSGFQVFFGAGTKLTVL

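The starting antibody came from a phage panning campaign against this peptide. The library (AAYL52) carries one to three amino acid substitutions per variant, with no insertions or deletions. The assay is AlphaSeq: two haploid yeast populations carry antibody and antigen on their surface. Mating (16 h, 30 °C) was followed by selection of diploids and sequencing of their barcodes. A regression on co-assayed BCL2-family reference pairs converts the normalised counts of each replicate to an apparent Kd. Mating was done three times.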

The whole VL of each variant is written out. The read-out is the apparent dissociation constant on a log10 scale (nM): the lower, the stronger. Averages over replicates are reported, and they cover detected replicates only. Empty control strains, which show no peptide, gave a signal in 28% of pairings with library AAYL52; the median was 3.91 and 95% of these signals were weaker than 2.90. No background was subtracted.

| # | VL | log10 Kd (nM), mean | detected |
|---|---|---|---|
| 1 | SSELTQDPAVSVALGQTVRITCEGDFLRYTYANWYQQKPGQAPILVIYGKNNRPSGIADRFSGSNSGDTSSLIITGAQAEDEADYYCSSRDSSGFQVFFGAGTKLTVL | 1.47 | 3 of 3 |
| 2 | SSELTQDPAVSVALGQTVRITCEGDSLRYYYANWYQQKPGQAPILVIYGKNNRPSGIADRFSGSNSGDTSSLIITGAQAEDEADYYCSSRLSQGFQVYFGAGTKLTVL | 2.41 | 3 of 3 |
| 3 | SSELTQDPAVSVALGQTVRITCEGDSLRYYYAPWYQQKPGQAPILVIYLKNNRGSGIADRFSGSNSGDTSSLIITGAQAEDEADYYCSSRDSSGFQVFFGAGTKLTVL | 4.53 | 1 of 3 |
| 4 | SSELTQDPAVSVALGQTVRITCEGDSLRYYAANWYQQKPGQAPILVIYGKNCRPSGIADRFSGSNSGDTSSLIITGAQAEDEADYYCSSRDSPGFQVFFGAGTKLTVL | 3.85 | 3 of 3 |
| 5 | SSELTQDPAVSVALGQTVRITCEGDHLRYTYANWYQQKPGQAPILVIYGKNNRWSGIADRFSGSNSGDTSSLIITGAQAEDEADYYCSSRDSSGFQVFFGAGTKLTVL | 2.31 | 3 of 3 |
| 6 | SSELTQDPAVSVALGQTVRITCEGWSLRYRYANWYQQKPGQAPILVIYGKTNRPSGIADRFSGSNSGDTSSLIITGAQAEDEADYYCSSRDSSGFQVFFGAGTKLTVL | 3.39 | 3 of 3 |
| 7 | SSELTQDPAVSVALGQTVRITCNGDSLRYYYANWYQQKPGQAPILVIYGSNNMPSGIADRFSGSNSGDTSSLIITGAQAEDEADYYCSSRDSSGFQVFFGAGTKLTVL | 3.55 | 2 of 3 |
| 8 | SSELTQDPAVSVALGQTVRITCEGDSLRYYYANWYQQKPGQAPILVIYGKWNRFSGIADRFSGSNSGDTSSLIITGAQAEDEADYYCSSRDSSGGQVFFGAGTKLTVL | 5.47 | 1 of 3 |
| 9 | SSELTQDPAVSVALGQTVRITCIGDSLRYAYPNWYQQKPGQAPILVIYGKNNRPSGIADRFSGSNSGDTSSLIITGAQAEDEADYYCSSRDSSGFQVFFGAGTKLTVL | 0.91 | 3 of 3 |

The remaining entries, values ahead:

| # | log10 Kd (nM), mean | detected | VL |
|---|---|---|---|
| 10 | 3.04 | 3 of 3 | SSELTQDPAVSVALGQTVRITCEYDSLRYYYANWYQQKPGQAPILVIYGDNNRPSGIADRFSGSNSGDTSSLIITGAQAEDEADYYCSSRDSSGFPVFFGAGTKLTVL |
| 11 | 3.31 | 3 of 3 | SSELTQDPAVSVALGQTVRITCEGDSLRYYYANWYQQKPGQAPILVIYGKNNKVSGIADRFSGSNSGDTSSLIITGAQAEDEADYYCSSRDSSGLQVFFGAGTKLTVL |
| 12 | 2.92 | 3 of 3 | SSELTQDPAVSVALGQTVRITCQGDSLRYTYANWYQQKPGQAPILVIYGKNNRPSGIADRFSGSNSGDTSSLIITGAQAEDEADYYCSSRDSHGFQVFFGAGTKLTVL |
| 13 | 1.26 | 3 of 3 | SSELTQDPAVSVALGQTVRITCEGDSLLYHYANWYQQKPGQAPILVIYGVNNRPSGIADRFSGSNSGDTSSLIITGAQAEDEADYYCSSRDSSGFQVFFGAGTKLTVL |
| 14 | 3.60 | 1 of 3 | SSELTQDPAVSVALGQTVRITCEGLSLRYYMANWYQQKPGQAPILVIYGKCNRPSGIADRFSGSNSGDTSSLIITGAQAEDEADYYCSSRDSSGFQVFFGAGTKLTVL |
| 15 | 3.17 | 3 of 3 | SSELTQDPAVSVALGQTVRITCEGSQLRYYYANWYQQKPGQAPILVIYGKNNRPSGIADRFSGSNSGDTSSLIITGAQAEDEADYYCSSRDVSGFQVFFGAGTKLTVL |
| 16 | 4.48 | 2 of 3 | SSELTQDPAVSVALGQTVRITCEGDSLRWYYANWYQQKPGQAPILVIYGKNNDPSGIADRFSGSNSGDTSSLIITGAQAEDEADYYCSSRDSSGFAVFFGAGTKLTVL |
| 17 | 2.44 | 3 of 3 | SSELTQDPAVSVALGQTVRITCEGDGLRYYYANWYQQKPGQAPILVIYGKMNRPSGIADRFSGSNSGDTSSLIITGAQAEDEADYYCSSRDSSGFDVFFGAGTKLTVL |
| 18 | 3.83 | 1 of 3 | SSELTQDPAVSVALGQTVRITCEGDKLRYYHANWYQQKPGQAPILVIYGKNNRPSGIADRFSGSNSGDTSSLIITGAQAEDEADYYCSSRDSSGWQVFFGAGTKLTVL |